## Measured affinities in a library of Ab-14 light chain variants

Data: MIT Lincoln Laboratory AlphaSeq set, Engelhart et al. 2022, doi:10.1038/s41597-022-01779-4, as distributed in FLAb.

The target is the same throughout: PDVDLGDISGINAS, from the HR2 region of SARS-CoV-2 spike.

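In library AAYL50, one, two or three CDR residues were substituted; doubles and triples were drawn at random. In AlphaSeq, yeast of one mating type display the scFv and yeast of the other type display the target. Mating (16 h, 30 °C) was followed by selection of diploids and sequencing of their barcodes. The ratio of observed to expected reads was calibrated, replicate by replicate, on BCL2-family standards whose Kd was known from biolayer interferometry. There are three technical replicates.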

Parent scFv Ab-14: VH joined to VL by a 15-residue (Gly4Ser)3 linker. Changes lie in the light chain CDRs alone.
VH: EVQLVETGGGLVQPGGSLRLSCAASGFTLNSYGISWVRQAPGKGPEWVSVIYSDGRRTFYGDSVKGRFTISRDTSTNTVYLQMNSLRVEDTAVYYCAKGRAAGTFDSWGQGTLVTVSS
VL: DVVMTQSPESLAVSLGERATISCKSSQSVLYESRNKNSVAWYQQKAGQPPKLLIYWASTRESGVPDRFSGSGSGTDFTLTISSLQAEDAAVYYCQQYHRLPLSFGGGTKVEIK

Substitutions are numbered in sequence along the VL above, starting at 1 (not Kabat). All variants listed here change L102 of the VL, counted from its first residue. Each Kd is an estimate from the mating assay, the geometric mean of the replicates in which the pair was seen; lower is stronger. An entry "no signal" has no value in the source: the pair was not observed among the diploids in any replicate. This suggests poor binding but is not conclusive. Three control strains display no target. For library AAYL50, 18% of the pairings with them gave a signal, with a median of 15 µM and one signal in twenty below 970 nM, so weak values seen in few replicates may be background.

Variant L30G+W56V+L102P gave no signal (0 of 3 replicates).
Variant T59V+E61K+L102N gave no signal (0 of 3 replicates).
Variant Y31Q+Q95G+L102E gave 4.3 nM (3 of 3 replicates).
Variant E32T+L102D gave 450 nM (3 of 3 replicates).
Variant S25Q+Q27H+L102Y gave no signal (0 of 3 replicates).
Variant S28Q+W56V+L102T gave 390 µM (3 of 3 replicates).
Variant K36I+R60E+L102Y gave 140 µM (2 of 3 replicates).
Variant Y31K+N37A+L102F gave 140 nM (3 of 3 replicates).
Variant S62V+P101Q+L102W gave 12 µM (1 of 3 replicates).
Variant S62N+H98Q+L102Y gave 13 nM (3 of 3 replicates).
Variant S38G+L102Q gave 16 µM (2 of 3 replicates).
Variant S38F+Q96W+L102S gave 76 µM (1 of 3 replicates).
Variant Q27I+A40N+L102I gave no signal (0 of 3 replicates).
Variant N37L+R60L+L102Q gave 2.0 µM (2 of 3 replicates).
Variant R60I+L102A gave 16 µM (1 of 3 replicates).
Variant E61Y+P101Y+L102I gave no signal (0 of 3 replicates).
Variant S28P+S62Y+L102S gave 76 nM (3 of 3 replicates).
Variant Y31T+A40C+L102E gave no signal (0 of 3 replicates).
Variant S28I+S38F+L102F gave no signal (0 of 3 replicates).
Variant V29K+Y31H+L102S gave 19 µM (2 of 3 replicates).
Variant Y31F+S38Y+L102F gave 10 µM (3 of 3 replicates).
Variant N35T+T59F+L102C gave 45 µM (1 of 3 replicates).
Variant K24S+S58K+L102C gave 75 nM (3 of 3 replicates).
Variant L30D+S33P+L102G gave 7.8 nM (3 of 3 replicates).
Variant L30M+W56K+L102Q gave no signal (0 of 3 replicates).
Variant E32W+N35Q+L102A gave no signal (0 of 3 replicates).
Variant Q96E+H98K+L102A gave 1.2 µM (1 of 3 replicates).
Variant K36L+W56T+L102V gave 710 nM (2 of 3 replicates).
Variant Q27T+Y97Q+L102H gave 26 nM (3 of 3 replicates).
Variant E32H+L102D gave 140 nM (3 of 3 replicates).
Variant L30F+E32P+L102K gave no signal (0 of 3 replicates).
Variant K36M+L102V gave 7.2 nM (3 of 3 replicates).
Variant A40G+S62E+L102W gave no signal (0 of 3 replicates).
Variant N37F+S62F+L102C gave 91 µM (2 of 3 replicates).
Variant S38H+L102Q gave 190 µM (1 of 3 replicates).
Variant A57T+R60L+L102E gave no signal (0 of 3 replicates).
Variant Y31W+W56N+L102V gave 94 nM (3 of 3 replicates).
Variant H98C+P101Y+L102P gave 22 µM (1 of 3 replicates).
Variant V29L+A57Q+L102S gave no signal (0 of 3 replicates).

From the list, the first 6 with no signal in any replicate:

changes	apparent Kd	replicates with signal
L30G+W56V+L102P	no signal	0/3
T59V+E61K+L102N	no signal	0/3
S25Q+Q27H+L102Y	no signal	0/3
Q27I+A40N+L102I	no signal	0/3
E61Y+P101Y+L102I	no signal	0/3
Y31T+A40C+L102E	no signal	0/3